{"sequences": {"note": "Amino acid sequences for entries named in this document (tags omitted).", "UniProt P53350, whole entry": "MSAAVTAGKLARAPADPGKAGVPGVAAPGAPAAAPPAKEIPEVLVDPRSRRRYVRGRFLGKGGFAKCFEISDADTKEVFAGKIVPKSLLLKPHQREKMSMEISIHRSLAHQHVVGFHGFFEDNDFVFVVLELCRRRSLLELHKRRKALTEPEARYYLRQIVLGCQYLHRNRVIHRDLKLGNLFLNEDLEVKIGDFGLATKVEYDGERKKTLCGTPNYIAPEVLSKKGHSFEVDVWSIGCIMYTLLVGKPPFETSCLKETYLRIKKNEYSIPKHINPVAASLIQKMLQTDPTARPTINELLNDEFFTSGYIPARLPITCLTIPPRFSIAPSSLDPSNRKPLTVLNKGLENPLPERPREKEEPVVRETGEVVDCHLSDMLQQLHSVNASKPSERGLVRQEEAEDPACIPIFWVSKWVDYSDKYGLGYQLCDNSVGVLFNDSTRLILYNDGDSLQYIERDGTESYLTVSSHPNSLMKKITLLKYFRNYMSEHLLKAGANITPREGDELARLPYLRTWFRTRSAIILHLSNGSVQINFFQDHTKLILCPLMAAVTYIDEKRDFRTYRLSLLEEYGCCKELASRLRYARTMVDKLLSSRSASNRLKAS"}, "source": "patent US7709471B2", "about": "“Compounds” (AstraZeneca AB, priority 2006, dated 2010)", "key": {"[1]": {"target": "recombinant Plk1 (Homo sapiens, UniProt P53350)", "assay": "In Vitro Plk1 Enzyme Assay (SPA, GST-Cdc25C phosphorylation)", "format": "biochemical", "conditions": "IC50 (Plk1 enzyme inhibition)"}, "[2]": {"tested_on": "human colon tumour cell line HT29", "assay": "Cellular Assay (phosphohistone H3 Ser10 mitotic marker, HT29)", "format": "cell-based", "conditions": "HT-29, 24 h, read-out: IC50 (cellular assay, phosphohistone H3)"}}}
{"compound": "COc1cc(C(=O)NC2CCN(C)CC2)ccc1Nc1ncc2c(n1)N(C1CCCCC1)CCC(=O)N2C", "note": "[Example 8, 4-[(2-Cyclohexyl-6-methyl-5-oxo-2,6,9,11-tetrazabicyclo[5.4.0]undeca-7,9,11-trien-10-yl)amino]-3-methoxy-N-(1-methyl-4-piperidyl)benzamide]", "values": [{"measurement": "IC50", "setting": "[1]", "result": "< 1", "unit": "µM"}, {"measurement": "IC50", "setting": "[2]", "result": "< 0.3", "unit": "µM"}]}
